Assay results: patent publication US20220133732A1 (priority 2019, published 2022)

Target: human CAIX (Homo sapiens, UniProt Q16790)
Format: binding
Settings: Table 1; peptide ligands on TBMB scaffold; fluorescent ligand A-(SEQ ID NO:1)-A-Sar6-K(FI)

“Ac-A-(SEQ ID NO: 3)-A-Sar10-D-K [61-01-02-N004]” gave a Ki of 13.4 nM.
